Assay results from article PMC11436673 (Journal of Experimental Pharmacology, 2024).

Chains of the proteins cited; added tags and fusions are not shown.
UniProt Q99685, whole entry: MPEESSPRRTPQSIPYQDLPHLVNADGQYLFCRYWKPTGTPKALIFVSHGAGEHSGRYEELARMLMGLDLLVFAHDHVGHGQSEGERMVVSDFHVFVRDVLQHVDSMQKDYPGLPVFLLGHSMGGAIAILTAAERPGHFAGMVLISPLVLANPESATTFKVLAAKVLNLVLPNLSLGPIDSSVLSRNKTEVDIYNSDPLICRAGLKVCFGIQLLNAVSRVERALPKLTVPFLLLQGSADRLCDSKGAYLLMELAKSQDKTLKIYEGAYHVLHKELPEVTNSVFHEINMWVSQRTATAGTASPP

Biological target: human monoacylglycerol lipase (MGL) (Homo sapiens, UniProt Q99685)
Assay type: biochemical

## O=C(Oc1ccc([N+](=O)[O-])cc1)N1CCN(Cc2cccc(Oc3ccccc3)c2)CC1 [JZL195, 4‐nitrophenyl 4‐(3‐phenoxy benzyl) piperazine ‐1‐carboxylate]
  IC50: 0.0648 µM
